Assay results reported in ChEMBL document CHEMBL4229345, “Inhibition of trypanosome alternative oxidase without its N-terminal mitochondrial targeting signal (ΔMTS-TAO) by cationic and non-cationic 4-hydroxybenzoate and 4-alkoxybenzaldehyde derivatives active against T. brucei and T. congolense” (Eur J Med Chem, 2018).

System: HFF
Assay: Cytotoxicity against HFF cells assessed as reduction in cell viability after 30 hrs by resazurin-based assay
Settings: human

Structure (SMILES): O=[As]c1ccccc1 (stereo unspecified)
- CC50: 290 nM
